Our source for the IC50 values is patent publication US8389511B2, “Bicyclic heterocyclic derivative” (Dainippon Sumitomo Pharma Co., Ltd., priority 2007, dated 2013).

Amino acid sequences for entries named in this document (tags omitted). Residues count along the entry.
UniProt P00797, 67-406 limits assumed: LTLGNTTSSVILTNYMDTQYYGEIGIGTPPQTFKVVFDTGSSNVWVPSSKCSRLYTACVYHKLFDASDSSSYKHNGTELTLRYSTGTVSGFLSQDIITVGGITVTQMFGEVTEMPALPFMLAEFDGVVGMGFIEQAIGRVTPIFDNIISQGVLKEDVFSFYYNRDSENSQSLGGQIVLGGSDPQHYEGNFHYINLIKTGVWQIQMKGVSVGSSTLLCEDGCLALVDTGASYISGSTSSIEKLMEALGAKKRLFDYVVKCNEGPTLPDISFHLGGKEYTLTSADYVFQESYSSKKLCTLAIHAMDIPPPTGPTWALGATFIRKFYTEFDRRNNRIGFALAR

As usually defined, the IC50 is the point on the concentration scale where inhibition reaches its midpoint.

This assay deals with Recombinant human renin (Homo sapiens, UniProt P00797). Put plainly: In vitro renin inhibitory activity assay (fluorescence, EDANS/DABCYL peptide substrate). Particulars: read-out: Human renin inhibitory activity IC50; recombinant human renin (50 ng), 0.1M HEPES buffer pH 7.4, substrate 4 μM, 37° C., one hour, fluorescence 340/500 nm; tested form: HCl. The class given is biochemical.
On to `CCOCCCN1C(=O)C(C)(C)Oc2cc(Cl)c(C(=O)N(C(C)C)[C@@H]3CCCNC3)cc21`, for which the IC50 amounted to 24 nM.

With `CCCc1cc2c(cc1C(=O)N(C(C)C)[C@@H]1CCCNC1)N(CCCOC)C(=O)C(C)(C)O2`, the IC50 was 4.3 nM.

Turning to `COCCCCN1C(=O)C(C)(C)Oc2cc(Cl)c(C(=O)N(C(C)C)[C@@H]3CCCNC3)cc21`, the IC50 worked out at 0.1 nM.

`COC(=O)NCCN1C(=O)[C@@H](C)Oc2cc(C)c(C(=O)N(C(C)C)[C@@H]3CCCNC3)cc21`: the IC50 worked out at 3.2 nM.

`COC(=O)NCCN1C(=O)C(C)(C)Oc2cc(C)c(C(=O)N(C(C)C)[C@@H]3CCCNC3)cc21`: the 50% inhibitory concentration (IC50) worked out at 0.6 nM.

`COC(=O)NCCN1C(=O)[C@@H](C)Oc2cc(Br)c(C(=O)N(C(C)C)[C@@H]3CCCNC3)cc21`: the IC50 is 0.4 nM.

As to `COCCCN1C(=O)[C@@H](C)Oc2cc(Br)c(C(=O)N(C(C)C)[C@@H]3CCCNC3)cc21`, the IC50 was 1.7 nM.

For `COCCCN1C(=O)[C@@H](C)Oc2cc(Cl)c(C(=O)N(C(C)C)[C@@H]3CCCNC3)cc21`, the 50% inhibitory concentration (IC50) was 12 nM.

For the compound `CCC1(C)Oc2cc(Cl)c(C(=O)N(C(C)C)[C@@H]3CCCNC3)cc2N(CCCOC)C1=O` (some centres unmarked), the IC50 amounted to 12 nM.

On to `COCCCCN1C(=O)[C@@H](C)Oc2cc(Br)c(C(=O)N(C(C)C)[C@@H]3CCCNC3)cc21`, for which the IC50 was determined as 1.9 nM.

With `CCC1Oc2cc(Cl)c(C(=O)N(C(C)C)[C@@H]3CCCNC3)cc2N(CCCOC)C1=O` (some centres unmarked), the IC50 was 17 nM.

As for `COC(=O)NCCN1C(=O)C(C)(C)Oc2cc(Br)c(C(=O)N(C(C)C)[C@@H]3CCCNC3)cc21`, the IC50 stood at 0.1 nM.

As to `COCCCCN1C(=O)C(C)(C)Oc2c(Cl)cc(C(=O)N(C(C)C)[C@@H]3CCCNC3)c(Br)c21`, the IC50 was determined as 5.3 nM.

As to `COCCCCN1C(=O)C(C)(C)Oc2c(Cl)cc(C(=O)N(C(C)C)[C@@H]3CCCNC3)c(Cl)c21`, the IC50 was 6 nM.

Take `COCCCCN1C(=O)[C@@H](C)Oc2cc(Cl)c(C(=O)N(C(C)C)[C@@H]3CCCNC3)cc21`: the IC50 is 4 nM.

Regarding `COCCCN1C(=O)C(C)(C)Oc2cc(Cl)c(C(=O)N(C(C)C)[C@@H]3CCCNC3)cc21`, the IC50 came out at 2.4 nM.

In the case of `CCC1(C)Oc2cc(Br)c(C(=O)N(C(C)C)[C@@H]3CCCNC3)cc2N(CCCOC)C1=O` (some centres unmarked), the IC50 came to 3.3 nM.

As for `COCCCN1C(=O)C(C)(C)Oc2cc(C)c(C(=O)N(C(C)C)[C@@H]3CCCNC3)cc21`, the IC50 came out at 6.1 nM.

As to `CCC1(C)Oc2cc(C#N)c(C(=O)N(C(C)C)[C@@H]3CCCNC3)cc2N(CCCOC)C1=O` (some centres unmarked), the IC50 came out at 42 nM.

As for `CCOCC1(C)Oc2cc(Cl)c(C(=O)N(C(C)C)[C@@H]3CCCNC3)cc2N(CCCCOC)C1=O` (some centres unmarked), the IC50 came to 6 nM.

Turning to `COCCCN1C(=O)C(C)(C)Oc2cc(C#N)c(C(=O)N(C(C)C)[C@@H]3CCCNC3)cc21`, the IC50 was determined as 26 nM.

For `COCCCCN1C(=O)C(C)(C)Oc2cc(C)c(C(=O)N(C(C)C)[C@@H]3CCCNC3)cc21`, the IC50 worked out at 5.3 nM.

For `COC(=O)NCCN1C(=O)[C@@H](C)Oc2cc(Cl)c(C(=O)N(C(C)C)[C@@H]3CCCNC3)cc21`, the IC50 is 4 nM.

Turning to `COC(=O)NCCN1C(=O)C(C)(C)Oc2cc(Cl)c(C(=O)N(C(C)C)[C@@H]3CCCNC3)cc21`, the IC50 was determined as 3 nM.

In the case of `COCCCCN1C(=O)[C@@H](C)Oc2cc(C)c(C(=O)N(C(C)C)[C@@H]3CCCNC3)cc21`, the IC50 is 3.4 nM.

For the compound `CCc1cc2c(cc1C(=O)N(C(C)C)[C@@H]1CCCNC1)N(CCCOC)C(=O)C(C)(C)O2`, the IC50 worked out at 10 nM.
